Values of other authors as cited in patent publication US20230154571A1, “METHOD AND DEVICE FOR SELECTING A SUBASSEMBLY OF MOLECULES FOR USE IN PREDICTING AT LEAST ONE PROPERTY OF A MOLECULAR STRUCTURE” (published 2023).
This is a selection: effects in other tests are not listed, and their absence says nothing.

Tested on: different bacterial cultures
Details: for Experimental data: Annex 1, AMES mutagenicity test, load molecules, data validated at the level of the European authorities; for Exp. data: Annex 2, AMES mutagenicity test, different categories of molecules

| Compound | Experimental data | Exp. data |
| --- | --- | --- |
| O=[N+]([O-])c1cc([N+](=O)[O-])c(O)c([N+](=O)[O-])c1 | + | + |
| O=[N+]([O-])c1cc([N+](=O)[O-])cc([N+](=O)[O-])c1 |  | + |
| Ammonium dinitramide |  | + |
| Dinitroanisole | + | + |
| Tetryl | + | + |
| ammonium nitrate |  | − |
| ammonium perchlorate |  | − |
| styphnic scid |  | − |
